Source: PMC4501059, “Responding to the challenge of untreatable gonorrhea: ETX0914, a first-in-class agent with a distinct mechanism-of-action against bacterial Type II topoisomerases” (Scientific Reports, 2015)

Tested on: S. aureus (ARC516, ATCC33591, USA100 NRS382, USA300 NRS384)

Structure (SMILES)	fAUC/MIC, Stasis (USA300 NRS384, Mean ± Standard error of the Mean)	range of fAUC/MIC PK/PD target (stasis, four S. aureus isolates, mouse thigh model)	mean fAUC/MIC PK/PD target (stasis, mean of four S. aureus isolates, mouse thigh model)	PK/PD magnitude (fAUC/MIC) in preclinical model, Measured, Stasis (S. aureus neutropenic thigh model, Mean ± Standard error of the Mean)
C[C@@H]1CN2c3c(cc4c(N5C(=O)OC[C@@H]5C)noc4c3F)CC3(C(=O)NC(=O)NC3=O)[C@H]2[C@H](C)O1 [ETX0914]	80 ± 5	43–98	66	–
CC(=O)NC[C@H]1CN(c2ccc(N3CCOCC3)c(F)c2)C(=O)O1 [Linezolid]	–	–	–	Stasis: 66 ± 25
